The target in this assay is filamentous actin (F-actin) polymerized from rabbit muscle G-actin, P68135. Nature of the assay: F-actin-binding assay (cosedimentation). As to conditions: chain shown with the change; 2.3 μM H2 mutant, 10.5 μM F-actin; parent: est. 1.0; read off a plot.

B1: CLIP-170 N-terminal fragment H2 (H2 1-481), P30622 K277A (protein)
chain: MSMLKPSGLKAPTKILKPGSTALKTPTAVVAPVEKTISSEKASSTPSSETQEEFVDDFRVGERVWVNGNKPGFIQFLGETQFAPGQWAGIVLDEPIGKNDGSVAGVRYFQCEPLKGIFTRPSKLTRKVQAEDEANGLQTTPASRATSPLCTSTASMVSSSPSTPSNIPQKPSQPAAKEPSATPPISNLTKTASESISNLSEAGSIKKGERELKIGDRVLVGGTKAGVVRFLGETDFAKGEWCGVELDEPLGKNDGAVAGTRYFQCQPKYGLFAPVHAVTKIGFPSTTPAKAKANAVRRVMATTSASLKRSPSASSLSSMSSVASSVSSRPSRTGLLTETSSRYARKISGTTALQEALKEKQQHIEQLLAERDLERAEVAKATSHVGEIEQELALARDGHDQHVLELEAKMDQLRTMVEAADREKVELLNQLEEEKRKVEDLQFRVEEESITKGDLEQKSQISEDPENTQTKLEHARIKELE
Turning to B1, the ratio to parent turned out to be 0.95.

B2: CLIP-170 N-terminal fragment H2 (H2 1-481), P30622 K252E; N253D (protein)
chain: MSMLKPSGLKAPTKILKPGSTALKTPTAVVAPVEKTISSEKASSTPSSETQEEFVDDFRVGERVWVNGNKPGFIQFLGETQFAPGQWAGIVLDEPIGKNDGSVAGVRYFQCEPLKGIFTRPSKLTRKVQAEDEANGLQTTPASRATSPLCTSTASMVSSSPSTPSNIPQKPSQPAAKEPSATPPISNLTKTASESISNLSEAGSIKKGERELKIGDRVLVGGTKAGVVRFLGETDFAKGEWCGVELDEPLGEDDGAVAGTRYFQCQPKYGLFAPVHKVTKIGFPSTTPAKAKANAVRRVMATTSASLKRSPSASSLSSMSSVASSVSSRPSRTGLLTETSSRYARKISGTTALQEALKEKQQHIEQLLAERDLERAEVAKATSHVGEIEQELALARDGHDQHVLELEAKMDQLRTMVEAADREKVELLNQLEEEKRKVEDLQFRVEEESITKGDLEQKSQISEDPENTQTKLEHARIKELE
Take B2: the ratio to parent worked out at 0.91.

B3: CLIP-170 N-terminal fragment H2 (H2 1-481), P30622 K123A (protein)
chain: MSMLKPSGLKAPTKILKPGSTALKTPTAVVAPVEKTISSEKASSTPSSETQEEFVDDFRVGERVWVNGNKPGFIQFLGETQFAPGQWAGIVLDEPIGKNDGSVAGVRYFQCEPLKGIFTRPSALTRKVQAEDEANGLQTTPASRATSPLCTSTASMVSSSPSTPSNIPQKPSQPAAKEPSATPPISNLTKTASESISNLSEAGSIKKGERELKIGDRVLVGGTKAGVVRFLGETDFAKGEWCGVELDEPLGKNDGAVAGTRYFQCQPKYGLFAPVHKVTKIGFPSTTPAKAKANAVRRVMATTSASLKRSPSASSLSSMSSVASSVSSRPSRTGLLTETSSRYARKISGTTALQEALKEKQQHIEQLLAERDLERAEVAKATSHVGEIEQELALARDGHDQHVLELEAKMDQLRTMVEAADREKVELLNQLEEEKRKVEDLQFRVEEESITKGDLEQKSQISEDPENTQTKLEHARIKELE
With B3, the ratio to parent amounted to 0.79.

B4: CLIP-170 N-terminal fragment H2 (H2 1-481), P30622 K224A (protein)
chain: MSMLKPSGLKAPTKILKPGSTALKTPTAVVAPVEKTISSEKASSTPSSETQEEFVDDFRVGERVWVNGNKPGFIQFLGETQFAPGQWAGIVLDEPIGKNDGSVAGVRYFQCEPLKGIFTRPSKLTRKVQAEDEANGLQTTPASRATSPLCTSTASMVSSSPSTPSNIPQKPSQPAAKEPSATPPISNLTKTASESISNLSEAGSIKKGERELKIGDRVLVGGTAAGVVRFLGETDFAKGEWCGVELDEPLGKNDGAVAGTRYFQCQPKYGLFAPVHKVTKIGFPSTTPAKAKANAVRRVMATTSASLKRSPSASSLSSMSSVASSVSSRPSRTGLLTETSSRYARKISGTTALQEALKEKQQHIEQLLAERDLERAEVAKATSHVGEIEQELALARDGHDQHVLELEAKMDQLRTMVEAADREKVELLNQLEEEKRKVEDLQFRVEEESITKGDLEQKSQISEDPENTQTKLEHARIKELE
On to B4, for which the ratio to parent was found to be 0.63.

B5: CLIP-170 N-terminal fragment H2 (H2 1-481), P30622 H276A (protein)
chain: MSMLKPSGLKAPTKILKPGSTALKTPTAVVAPVEKTISSEKASSTPSSETQEEFVDDFRVGERVWVNGNKPGFIQFLGETQFAPGQWAGIVLDEPIGKNDGSVAGVRYFQCEPLKGIFTRPSKLTRKVQAEDEANGLQTTPASRATSPLCTSTASMVSSSPSTPSNIPQKPSQPAAKEPSATPPISNLTKTASESISNLSEAGSIKKGERELKIGDRVLVGGTKAGVVRFLGETDFAKGEWCGVELDEPLGKNDGAVAGTRYFQCQPKYGLFAPVAKVTKIGFPSTTPAKAKANAVRRVMATTSASLKRSPSASSLSSMSSVASSVSSRPSRTGLLTETSSRYARKISGTTALQEALKEKQQHIEQLLAERDLERAEVAKATSHVGEIEQELALARDGHDQHVLELEAKMDQLRTMVEAADREKVELLNQLEEEKRKVEDLQFRVEEESITKGDLEQKSQISEDPENTQTKLEHARIKELE
As to B5, the ratio to parent was found to be 1.2.

B6: CLIP-170 N-terminal fragment H2 (H2 1-481), P30622 K98E (protein)
chain: MSMLKPSGLKAPTKILKPGSTALKTPTAVVAPVEKTISSEKASSTPSSETQEEFVDDFRVGERVWVNGNKPGFIQFLGETQFAPGQWAGIVLDEPIGENDGSVAGVRYFQCEPLKGIFTRPSKLTRKVQAEDEANGLQTTPASRATSPLCTSTASMVSSSPSTPSNIPQKPSQPAAKEPSATPPISNLTKTASESISNLSEAGSIKKGERELKIGDRVLVGGTKAGVVRFLGETDFAKGEWCGVELDEPLGKNDGAVAGTRYFQCQPKYGLFAPVHKVTKIGFPSTTPAKAKANAVRRVMATTSASLKRSPSASSLSSMSSVASSVSSRPSRTGLLTETSSRYARKISGTTALQEALKEKQQHIEQLLAERDLERAEVAKATSHVGEIEQELALARDGHDQHVLELEAKMDQLRTMVEAADREKVELLNQLEEEKRKVEDLQFRVEEESITKGDLEQKSQISEDPENTQTKLEHARIKELE
On to B6, for which the ratio to parent turned out to be 0.64.

B7: CLIP-170 N-terminal fragment H2 (H2 1-481), P30622 K252A (protein)
chain: MSMLKPSGLKAPTKILKPGSTALKTPTAVVAPVEKTISSEKASSTPSSETQEEFVDDFRVGERVWVNGNKPGFIQFLGETQFAPGQWAGIVLDEPIGKNDGSVAGVRYFQCEPLKGIFTRPSKLTRKVQAEDEANGLQTTPASRATSPLCTSTASMVSSSPSTPSNIPQKPSQPAAKEPSATPPISNLTKTASESISNLSEAGSIKKGERELKIGDRVLVGGTKAGVVRFLGETDFAKGEWCGVELDEPLGANDGAVAGTRYFQCQPKYGLFAPVHKVTKIGFPSTTPAKAKANAVRRVMATTSASLKRSPSASSLSSMSSVASSVSSRPSRTGLLTETSSRYARKISGTTALQEALKEKQQHIEQLLAERDLERAEVAKATSHVGEIEQELALARDGHDQHVLELEAKMDQLRTMVEAADREKVELLNQLEEEKRKVEDLQFRVEEESITKGDLEQKSQISEDPENTQTKLEHARIKELE
With B7, the ratio to parent came out at 0.89.

B8: CLIP-170 N-terminal fragment H2 (H2 1-481), P30622 N253A (protein)
chain: MSMLKPSGLKAPTKILKPGSTALKTPTAVVAPVEKTISSEKASSTPSSETQEEFVDDFRVGERVWVNGNKPGFIQFLGETQFAPGQWAGIVLDEPIGKNDGSVAGVRYFQCEPLKGIFTRPSKLTRKVQAEDEANGLQTTPASRATSPLCTSTASMVSSSPSTPSNIPQKPSQPAAKEPSATPPISNLTKTASESISNLSEAGSIKKGERELKIGDRVLVGGTKAGVVRFLGETDFAKGEWCGVELDEPLGKADGAVAGTRYFQCQPKYGLFAPVHKVTKIGFPSTTPAKAKANAVRRVMATTSASLKRSPSASSLSSMSSVASSVSSRPSRTGLLTETSSRYARKISGTTALQEALKEKQQHIEQLLAERDLERAEVAKATSHVGEIEQELALARDGHDQHVLELEAKMDQLRTMVEAADREKVELLNQLEEEKRKVEDLQFRVEEESITKGDLEQKSQISEDPENTQTKLEHARIKELE
Regarding B8, the ratio to parent amounted to 0.62.

B9: CLIP-170 N-terminal fragment H2 (H2 1-481), P30622 K238A (protein)
chain: MSMLKPSGLKAPTKILKPGSTALKTPTAVVAPVEKTISSEKASSTPSSETQEEFVDDFRVGERVWVNGNKPGFIQFLGETQFAPGQWAGIVLDEPIGKNDGSVAGVRYFQCEPLKGIFTRPSKLTRKVQAEDEANGLQTTPASRATSPLCTSTASMVSSSPSTPSNIPQKPSQPAAKEPSATPPISNLTKTASESISNLSEAGSIKKGERELKIGDRVLVGGTKAGVVRFLGETDFAAGEWCGVELDEPLGKNDGAVAGTRYFQCQPKYGLFAPVHKVTKIGFPSTTPAKAKANAVRRVMATTSASLKRSPSASSLSSMSSVASSVSSRPSRTGLLTETSSRYARKISGTTALQEALKEKQQHIEQLLAERDLERAEVAKATSHVGEIEQELALARDGHDQHVLELEAKMDQLRTMVEAADREKVELLNQLEEEKRKVEDLQFRVEEESITKGDLEQKSQISEDPENTQTKLEHARIKELE
With B9, the ratio to parent amounted to 0.65.

B10: CLIP-170 N-terminal fragment H2 (H2 1-481), P30622 K98E; N99D (protein)
chain: MSMLKPSGLKAPTKILKPGSTALKTPTAVVAPVEKTISSEKASSTPSSETQEEFVDDFRVGERVWVNGNKPGFIQFLGETQFAPGQWAGIVLDEPIGEDDGSVAGVRYFQCEPLKGIFTRPSKLTRKVQAEDEANGLQTTPASRATSPLCTSTASMVSSSPSTPSNIPQKPSQPAAKEPSATPPISNLTKTASESISNLSEAGSIKKGERELKIGDRVLVGGTKAGVVRFLGETDFAKGEWCGVELDEPLGKNDGAVAGTRYFQCQPKYGLFAPVHKVTKIGFPSTTPAKAKANAVRRVMATTSASLKRSPSASSLSSMSSVASSVSSRPSRTGLLTETSSRYARKISGTTALQEALKEKQQHIEQLLAERDLERAEVAKATSHVGEIEQELALARDGHDQHVLELEAKMDQLRTMVEAADREKVELLNQLEEEKRKVEDLQFRVEEESITKGDLEQKSQISEDPENTQTKLEHARIKELE
In the case of B10, the ratio to parent was determined as 1.
